Test results from ChEMBL document CHEMBL1142542, “Synthesis, mechanistic studies, and anti-proliferative activity of glutathione/glutathione S-transferase-activated nitric oxide prodrugs” (Bioorg Med Chem, 2008).

Assays:
Conditions in all cases: Homo sapiens
[1] = substrate: CCOC(=O)N1CCCN(/[N+]([O-])=N/Oc2ccc([N+](=O)[O-])cc2[N+](=O)[O-])CC1
[2] = substrate: CCOC(=O)N1CCN(/[N+]([O-])=N/Oc2ccc([N+](=O)[O-])cc2[N+](=O)[O-])CC1
[3] = substrate: CCOC(=O)N1CCCN(/[N+]([O-])=N/Oc2ccc([N+](=O)[O-])cc2[N+](=O)[O-])CC1; remark: listed apart in the source
[4] = substrate: CCOC(=O)N1CCN(/[N+]([O-])=N/Oc2ccc([N+](=O)[O-])cc2[N+](=O)[O-])CC1; remark: listed apart in the source
[5] = substrate: CCOC(=O)N1CCCN(/[N+]([O-])=N/Oc2ccc([N+](=O)[O-])cc2[N+](=O)[O-])CC1; remark: listed apart in the source
[6] = substrate: CCOC(=O)N1CCN(/[N+]([O-])=N/Oc2ccc([N+](=O)[O-])cc2[N+](=O)[O-])CC1; remark: listed apart in the source

B1: Glutathione S-transferase P (Homo sapiens), P09211 (protein)
chain: MPPYTVVYFPVRGRCAALRMLLADQGQSWKEEVVTVETWQEGSLKASCLYGQLPKFQDGDLTLYQSNTILRHLGRTLGLYGKDQQEAALVDMVNDGVEDLRCKYISLIYTNYEAGKDDYVKALPGQLKPFETLLSQNQGGKTFIVGDQISFADYNLLDLLLIHEVLAPGCLDAFPLLSAYVGRLSARPKLKAFLASPEYVNLPINGNGKQ
[1]
  kcat/Km: 1300 M⁻¹ s⁻¹
[2]
  kcat/Km: 1500 M⁻¹ s⁻¹

B2: Glutathione S-transferase A1 (Homo sapiens), P08263 (protein)
chain: MAEKPKLHYFNARGRMESTRWLLAAAGVEFEEKFIKSAEDLDKLRNDGYLMFQQVPMVEIDGMKLVQTRAILNYIASKYNLYGKDIKERALIDMYIEGIADLGEMILLLPVCPPEEKDAKLALIKEKIKNRYFPAFEKVLKSHGQDYLVGNKLSRADIHLVELLYYVEELDSSLISSFPLLKALKTRISNLPTVKKFLQPGSPRKPPMDEKSLEEARKIFRF
[3]
  kcat/Km: 12000 M⁻¹ s⁻¹
[4]
  kcat/Km: 20000 M⁻¹ s⁻¹

B3: Glutathione S-transferase Mu 1 (Homo sapiens), P09488 (protein)
chain: MPMILGYWDIRGLAHAIRLLLEYTDSSYEEKKYTMGDAPDYDRSQWLNEKFKLGLDFPNLPYLIDGAHKITQSNAILCYIARKHNLCGETEEEKIRVDILENQTMDNHMQLGMICYNPEFEKLKPKYLEELPEKLKLYSEFLGKRPWFAGNKITFVDFLVYDVLDLHRIFEPKCLDAFPNLKDFISRFEGLEKISAYMKSSRFLPRPVFSKMAVWGNK
[5]
  kcat/Km: 42000 M⁻¹ s⁻¹
[6]
  kcat/Km: 62000 M⁻¹ s⁻¹
